Test results from patent US10428062B2, “Geminal substituted aminobenzisoxazole compounds as agonists of α7-nicotinic acetylcholine receptors” (Forum Pharmaceuticals, Inc., priority 2015, dated 2019).
Where a name gives a salt, the structure may show the parent alone.

Amino acid sequences for entries named in this document (tags omitted). Residues count along the entry.
UniProt P36544, 23-502 limits assumed: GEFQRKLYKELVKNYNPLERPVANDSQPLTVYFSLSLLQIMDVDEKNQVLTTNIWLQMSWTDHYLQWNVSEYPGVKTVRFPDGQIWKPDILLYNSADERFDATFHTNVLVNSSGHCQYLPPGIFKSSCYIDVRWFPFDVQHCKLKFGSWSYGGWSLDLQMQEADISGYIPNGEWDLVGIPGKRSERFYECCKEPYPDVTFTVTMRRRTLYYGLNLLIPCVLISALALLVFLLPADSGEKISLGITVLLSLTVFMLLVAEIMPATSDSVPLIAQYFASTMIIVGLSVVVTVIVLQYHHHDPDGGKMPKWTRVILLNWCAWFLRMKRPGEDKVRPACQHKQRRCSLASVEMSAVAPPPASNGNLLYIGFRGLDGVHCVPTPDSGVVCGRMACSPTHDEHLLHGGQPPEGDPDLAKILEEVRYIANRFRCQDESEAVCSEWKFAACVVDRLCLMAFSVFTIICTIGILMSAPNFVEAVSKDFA

Molecular target: human α7 nAChR (Homo sapiens, UniProt P36544)
Assay: Human α7 nAChR binding assay ([125I]-αBungarotoxin competition, Cerep)
Conditions: read-out: h- α7 Ki; SH-SY5Y membranes expressing human α7 nAChR, 0.05 nM [125I]-αBgt, 120 min at 37° C.

Row | SMILES | Ki
1 | Cc1ccc2c(N[C@@H]3C4CCN(CC4)C34CC4)noc2c1Cl [Compound (R)-28, (R)-7-chloro-6-methyl-N-(1′-azaspiro[cyclopropane-1,2′-bicyclo[2.2.2]octan]-3′-yl)benzo[d]isoxazol-3-amine hydrochloride] | 140 nM
2 | CC(C)Oc1c(Cl)ccc2c(N[C@@H]3C4CCN(CC4)C34CC4)noc12 | 250 nM
3 | CC1(C)[C@H](Nc2noc3cc(Cl)ccc23)C2CCN1CC2 [Compound (R)-1, (R)-6-chloro-N-(2,2-dimethylquinuclidin-3-yl)benzo[d]isoxazol-3-amine] | 120 nM
4 | Cc1ccc2c(N[C@@H]3C4CCN(CC4)C34CC4)noc2c1F [Compound (R)-22, (R)-7-fluoro-6-methyl-N-(1′-azaspiro[cyclopropane-1,2′-bicyclo[2.2.2]octan]-3′-yl)benzo[d]isoxazol-3-amine hydrochloride] | 56 nM
5 | CC(C)Oc1c(Cl)ccc2c(N[C@@H]3C4CCN(CC4)C3(C)C)noc12 | 410 nM
6 | Cc1ccc2c(N[C@@H]3C4CCN(CC4)C34CC4)noc2c1 [Compound (R)-21, (R)-6-methyl-N-(1′-azaspiro[cyclopropane-1,2′-bicyclo[2.2.2]octan]-3′-yl) benzo[d]isoxazol-3-amine hydrochloride] | 235 nM
7 | Fc1cc2c(N[C@@H]3C4CCN(CC4)C34CC4)noc2cc1Cl [Compound (R)-26, (R)-6-chloro-5-fluoro-N-(1′-azaspiro[cyclopropane-1,2′-bicyclo[2.2.2]octan]-3′-yl)benzo[d]isoxazol-3-amine hydrochloride] | 200 nM
8 | COc1ccc2c(N[C@@H]3C4CCN(CC4)C3(C)C)noc2c1 [Compound (R)-3, (R)—N-(2,2-dimethylquinuclidin-3-yl)-6-methoxybenzo[d]isoxazol-3-amine hydrochloride] | 150 nM
9 | CC1(C)[C@H](Nc2noc3c(Cl)c(Cl)ccc23)C2CCN1CC2 [Compound (R)-4, (R)-6,7-dichloro-N-(2,2-dimethylquinuclidin-3-yl)benzo[d]isoxazol-3-amine hydrochloride] | 109 nM
10 | Cc1c(Cl)ccc2c(N[C@@H]3C4CCN(CC4)C34CC4)noc12 [Compound (R)-25, (R)-6-chloro-7-methyl-N-(1′-azaspiro[cyclopropane-1,2′-bicyclo[2.2.2]octan]-3′-yl)benzo[d]isoxazol-3-amine hydrochloride] | 90 nM
11 | CCOc1c(Cl)ccc2c(N[C@@H]3C4CCN(CC4)C34CC4)noc12 [Compound (R)-27, (R)-6-chloro-7-ethoxy-N-(1′-azaspiro[cyclopropane-1,2′-bicyclo[2.2.2]octan]-3′-yl)benzo[d]isoxazol-3-amine hydrochloride] | 170 nM
12 | COc1c(Cl)ccc2c(N[C@@H]3C4CCN(CC4)C3(C)C)noc12 [Compound (R)-5, (R)-6-chloro-N-(2,2-dimethylquinuclidin-3-yl)-7-methoxybenzo[d]isoxazol-3-amine hydrochloride] | 72 nM
13 | Cc1cc2onc(N[C@@H]3C4CCN(CC4)C3(C)C)c2cc1F [Compound (R)-9, (R)—N-(2,2-dimethylquinuclidin-3-yl)-5-fluoro-6-methylbenzo[d]isoxazol-3-amine hydrochloride] | 630 nM
14 | CC1(C)[C@H](Nc2noc3c(F)c(Cl)ccc23)C2CCN1CC2 [Compound (R)-2, (R)-6-chloro-N-(2,2-dimethylquinuclidin-3-yl)-7-fluorobenzo[d]isoxazol-3-amine hydrochloride] | 129 nM
15 | Fc1c(Cl)ccc2c(N[C@@H]3C4CCN(CC4)C34CC4)noc12 [Compound (R)-17, (R)-6-chloro-7-fluoro-N-(1′-azaspiro[cyclopropane-1,2′-bicyclo[2.2.2]octan]-3′-yl)benzo[d]isoxazol-3-amine hydrochloride] | 99 nM
16 | Cc1ccc2c(N[C@@H]3C4CCN(CC4)C3(C)C)noc2c1F [Compound (R)-7, (R)—N-(2,2-dimethylquinuclidin-3-yl)-7-fluoro-6-methylbenzo[d]isoxazol-3-amine hydrochloride] | 80 nM
17 | FC(F)(F)c1c(Cl)ccc2c(N[C@@H]3C4CCN(CC4)C34CC4)noc12 [Compound (R)-29, (R)-6-chloro-N-(1′-azaspiro[cyclopropane-1,2′-bicyclo[2.2.2]octan]-3′-yl)-7-(trifluoromethyl)benzo[d]isoxazol-3-amine hydrochloride] | 370 nM

Row | SMILES | Ki
18 | Clc1ccc2c(N[C@@H]3C4CCN(CC4)C34CC4)noc2c1 [Compound (R)-16, (R)-6-chloro-N-(1′-azaspiro[cyclopropane-1,2′-bicyclo[2.2.2]octan]-3′-yl)benzo[d]isoxazol-3-amine] | 74.7 nM
19 | CC1(C)[C@H](Nc2noc3c(C(F)(F)F)c(Cl)ccc23)C2CCN1CC2 [Compound (R)-14, (R)-6-chloro-N-(2,2-dimethylquinuclidin-3-yl)-7-(trifluoromethyl)benzo[d]isoxazol-3-amine hydrochloride] | 345 nM
20 | Cc1ccc2c(N[C@@H]3C4CCN(CC4)C3(C)C)noc2c1 [Compound (R)-6, (R)—N-(2,2-dimethylquinuclidin-3-yl)-6-methylbenzo[d]isoxazol-3-amine hydrochloride] | 135 nM
21 | Cc1c(Cl)ccc2c(N[C@@H]3C4CCN(CC4)C3(C)C)noc12 [Compound (R)-10, (R)-6-chloro-N-(2,2-dimethylquinuclidin-3-yl)-7-methylbenzo[d]isoxazol-3-amine hydrochloride] | 180 nM
22 | Cc1cc2onc(N[C@@H]3C4CCN(CC4)C34CC4)c2cc1F [Compound (R)-24, (R)-5-fluoro-6-methyl-N-(1′-azaspiro[cyclopropane-1,2′-bicyclo[2.2.2]octan]-3′-yl) benzo[d]isoxazol-3-amine hydrochloride] | 325 nM
23 | CC1(C)[C@H](Nc2noc3cc(Cl)c(F)cc23)C2CCN1CC2 [Compound (R)-11, (R)-6-chloro-N-(2,2-dimethylquinuclidin-3-yl)-5-fluorobenzo[d]isoxazol-3-amine hydrochloride] | 280 nM
24 | COc1ccc2c(N[C@@H]3C4CCN(CC4)C34CC4)noc2c1 [Compound (R)-18, (R)-6-methoxy-N-(1′-azaspiro[cyclopropane-1,2′-bicyclo[2.2.2]octan]-3′-yl)benzo[d]isoxazol-3-amine hydrochloride] | 100 nM
25 | Cc1ccc2c(N[C@@H]3C4CCN(CC4)C3(C)C)noc2c1Cl [Compound (R)-13, (R)-7-chloro-N-(2,2-dimethylquinuclidin-3-yl)-6-methylbenzo[d]isoxazol-3-amine hydrochloride] | 180 nM
26 | CC1(C)[C@H](Nc2noc3c(Cl)c(F)ccc23)C2CCN1CC2 [Compound (R)-8, (R)-7-chloro-N-(2,2-dimethylquinuclidin-3-yl)-6-fluorobenzo[d]isoxazol-3-amine hydrochloride] | 195 nM
27 | Fc1ccc2c(N[C@@H]3C4CCN(CC4)C34CC4)noc2c1Cl [Compound (R)-23, (R)-7-chloro-6-fluoro-N-(1′-azaspiro[cyclopropane-1,2′-bicyclo[2.2.2]octan]-3′-yl)benzo[d]isoxazol-3-amine hydrochloride] | 230 nM
28 | CC1(C)C(Nc2noc3cc(Cl)ccc23)C2CCN1CC2 (racemic) [rac-1, 6-chloro-N-(2,2-dimethylquinuclidin-3-yl)benzo[d]isoxazol-3-amine hydrochloride] | 110 nM
29 | Clc1ccc2c(N[C@H]3C4CCN(CC4)C34CC4)noc2c1 | 1700 nM
30 | Clc1ccc2c(N[C@@H]3C4CCN(CC4)C34CC4)noc2c1Cl [(R)-19, (R)-6,7-dichloro-N-(1′-azaspiro[cyclopropane-1,2′-bicyclo[2.2.2]octan]-3′-yl)benzo[d]isoxazol-3-amine hydrochloride] | 74.5 nM
31 | Clc1ccc2c(NC3C4CCN(CC4)C34CC4)noc2c1 (racemic) [rac-16, 6-chloro-N-(1′-azaspiro[cyclopropane-1,2′-bicyclo[2.2.2]octan]-3′-yl)benzo[d]isoxazol-3-amine hydrochloride] | 50 nM
32 | COc1c(Cl)ccc2c(N[C@@H]3C4CCN(CC4)C34CC4)noc12 [Compound (R)-20, (R)-6-chloro-7-methoxy-N-(1′-azaspiro[cyclopropane-1,2′-bicyclo[2.2.2]octan]-3′-yl)benzo[d]isoxazol-3-amine hydrochloride] | 30 nM
33 | CCOc1c(Cl)ccc2c(N[C@@H]3C4CCN(CC4)C3(C)C)noc12 [Compound (R)-12, (R)-6-chloro-N-(2,2-dimethylquinuclidin-3-yl)-7-ethoxybenzo[d]isoxazol-3-amine hydrochloride] | 305 nM
